# Source: patent publication US20150148256A1, “BIOLUMINESCENCE IMAGING-BASED SCREENING ASSAY AND INHIBITORS OF ABCG2” (THE JOHNS HOPKINS UNIVERSITY, priority 2008, published 2015)
# Amino acid sequences for entries named in this document (tags omitted). A change or cut given only in a name is not applied to a line headed by its entry.
# UniProt Q9UNQ0: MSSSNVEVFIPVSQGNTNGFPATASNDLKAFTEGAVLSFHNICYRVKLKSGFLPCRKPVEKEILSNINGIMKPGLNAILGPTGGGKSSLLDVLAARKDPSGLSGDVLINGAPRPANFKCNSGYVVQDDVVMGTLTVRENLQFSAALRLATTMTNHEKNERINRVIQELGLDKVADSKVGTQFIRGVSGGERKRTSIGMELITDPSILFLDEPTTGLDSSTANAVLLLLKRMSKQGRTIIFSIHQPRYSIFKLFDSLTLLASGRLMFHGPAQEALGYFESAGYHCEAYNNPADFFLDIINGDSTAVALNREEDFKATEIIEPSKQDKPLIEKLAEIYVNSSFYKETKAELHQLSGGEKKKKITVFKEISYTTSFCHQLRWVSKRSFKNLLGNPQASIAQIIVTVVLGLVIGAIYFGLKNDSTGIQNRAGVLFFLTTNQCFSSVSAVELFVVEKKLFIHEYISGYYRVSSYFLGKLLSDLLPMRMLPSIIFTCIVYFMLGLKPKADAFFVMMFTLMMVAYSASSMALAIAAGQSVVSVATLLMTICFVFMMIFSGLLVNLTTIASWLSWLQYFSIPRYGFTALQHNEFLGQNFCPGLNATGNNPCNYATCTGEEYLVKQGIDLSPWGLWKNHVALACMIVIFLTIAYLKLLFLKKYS
# Biological target: ABCG2 (Homo sapiens, UniProt Q9UNQ0)
smiles,measurement,value
"C[C@]12CC[C@H](O)CC1=CC[C@@H]1[C@@H]2CC[C@]2(C)C(=O)CC[C@@H]12 [prasterone (DHEA), prasterone]","Fold (BLI enhancement, S/B ratio over control)",2.5 fold
